Laboratory results reported in ChEMBL document CHEMBL1132774, “Tetrahydroisoquinoline derivatives containing a benzenesulfonamide moiety as potent, selective human beta3 adrenergic receptor agonists” (Bioorg Med Chem Lett, 2000).

Target: Beta-1 adrenergic receptor (Homo sapiens, UniProt P08588)
Test: Compound was evaluated for its adenylyl cyclase activation at human beta-1 adrenergic receptor (AR)

Compound: CCCCCCNC(=O)Nc1ccc(S(=O)(=O)Nc2ccc(-c3ccc(CC4NCCc5cc(O)c(O)cc54)cc3)cc2)cc1 (stereo unspecified)
- Activation: 67%
